Biological target: T1, GST-ScNSP1(1–603) (S. cerevisiae, UniProt P14907 1-603)
T1 construct: Nsp1 of S. cerevisiae, FXFG-type FG-repeat region, residues 1-603; In pGEX-2T; also called GST-NSP1(1–603); source: E. coli BL21(DE3), purified (GSH beads, eluted with glutathione, dialysed); not shown: GST, N-terminal, kept
Test: pull-down; GST-FG fusions pre-bound to GSH beads; soluble protein (100-500 pmol) pre-mixed with 200 μg bacterial extract proteins in 0.5 ml pulldown buffer (10 mM HEPES pH 7.5, 160 mM KOAc, 1 mM MgOAc2, 1 mM DTT, 0.01% Triton X-100); 20 min, room temperature; eluted with 1 M NaCl, then SDS-sample buffer; SDS-PAGE, SYPRO Ruby
Conditions: both partners purified

- binding result: binds
B1: importin β from S. cerevisiae (ScKap95) (natural protein, UniProt Q06142 1-861, looked up)
chain: MSTAEFAQLLENSILSPDQNIRLTSETQLKKLSNDNFLQFAGLSSQVLIDENTKLEGRILAALTLKNELVSKDSVKTQQFAQRWITQVSPEAKNQIKTNALTALVSIEPRIANAAAQLIAAIADIELPHGAWPELMKIMVDNTGAEQPENVKRASLLALGYMCESADPQSQALVSSSNNILIAIVQGAQSTETSKAVRLAALNALADSLIFIKNNMEREGERNYLMQVVCEATQAEDIEVQAAAFGCLCKIMSLYYTFMKPYMEQALYALTIATMKSPNDKVASMTVEFWSTICEEEIDIAYELAQFPQSPLQSYNFALSSIKDVVPNLLNLLTRQNEDPEDDDWNVSMSAGACLQLFAQNCGNHILEPVLEFVEQNITADNWRNREAAVMAFGSIMDGPDKVQRTYYVHQALPSILNLMNDQSLQVKETTAWCIGRIADSVAESIDPQQHLPGVVQACLIGLQDHPKVATNCSWTIINLVEQLAEATPSPIYNFYPALVDGLIGAANRIDNEFNARASAFSALTTMVEYATDTVAETSASISTFVMDKLGQTMSVDENQLTLEDAQSLQELQSNILTVLAAVIRKSPSSVEPVADMLMGLFFRLLEKKDSAFIEDDVFYAISALAASLGKGFEKYLETFSPYLLKALNQVDSPVSITAVGFIADISNSLEEDFRRYSDAMMNVLAQMISNPNARRELKPAVLSVFGDIASNIGADFIPYLNDIMALCVAAQNTKPENGTLEALDYQIKVLEAVLDAYVGIVAGLHDKPEALFPYVGTIFQFIAQVAEDPQLYSEDATSRAAVGLIGDIAAMFPDGSIKQFYGQDWVIDYIKRTRSGQLFSQATKDTARWAREQQKRQLSL
notes: Kap95 (importin β) of S. cerevisiae, PCR-amplified ORF
